Test results taken from the supplement of paper PMC8633005.

Experiments:
Assay in all cases: drug sensitivity score (DSS) (DSS (unitless, 0-50 scale)); higher = more sensitive (stronger viability inhibition); extreme values may be limits of the assay
Conditions in all cases: 72 h; culture: 2D
[1] = test system: SK-MEL-28
In short: (§1)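 Melanoma cell lines and patient-derived melanoma cultures at 1000–1500 cells per well were exposed in 2D, in 384-well plates, to a 527-compound oncology library at five concentrations spanning a 10,000-fold range for 72 h at 37 °C. CellTiter-Glo luminescence then measured viability. From dose-response curves fitted in the in-house Breeze software, a drug sensitivity score, a modified area-under-curve measure, was obtained.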

[2] = test system: FM-MEL-2
In short: as §1

[3] = test system: WM852
In short: as §1

[4] = test system: FM-MEL-6
In short: as §1

[5] = test system: WM165
In short: as §1

[6] = test system: SK-MEL-2
In short: as §1

[7] = test system: Bowes
In short: as §1

[8] = test system: FM-MEL-3
In short: as §1

Measured: drug sensitivity score

NCc1ccc(OCCCc2sc(-c3ccc4c(c3)/C(=N/Nc3nc5ccccc5s3)CCC4)nc2C(=O)O)cc1 [WEHI-539]
0: all assays above
